Experiment: in vivo
Settings: mouse, iv
Description: As is known, carnitine contains an asymetrical carbon atom and consequently exists in two stereoisomer forms.
`CCCC(=O)OC(CC(=O)[O-])C[N+](C)(C)C` (stereo not shown) [butyryl-carnitine] showed an LD50 of 742 mg/kg. In the case of `CCCCCC(=O)OC(CC(=O)[O-])C[N+](C)(C)C` (stereo not shown) [hexanoyl-carnitine], the LD50 was 695 mg/kg. Work on `CCCCCCCC(=O)OC(CC(=O)[O-])C[N+](C)(C)C` (stereo not shown) [octanoyl-carnitine] yielded an LD50 of 630 mg/kg. With `CCC(=O)OC(CC(=O)[O-])C[N+](C)(C)C` (stereo not shown) [propionyl-carnitine] the LD50 was 761 mg/kg.

Reference: patent US4343816A, “Pharmaceutical composition comprising an acyl-carnitine, for treating peripheral vascular diseases” (priority 1979, dated 1982)
